In test [1] the test system is BB rats with onset of IDDM. As to the kind of experiment: Test Example 4: X-ray (0.153 Å) diagnosis and therapy of IDDM in BB rats with the gold complex. Conditions: 5 mg/kg i.v., 25 KeV.
Test [2] concerns macrophages having infiltrated the Langerhans islets. Briefly: Test Example 2: electron microscopy of gold particles in pancreas sections after i.v. administration to BB rats with onset of IDDM. Conditions: 5 mg/kg via tail vein, pancreas excised 1 hour after administration.

As to mono-L-aspartyl chlorin e6-gold complex, the “survival curve compared with untreated control group” value in test [1] (24 h later X-ray 0.153 Å) is recorded as “evidently prolonged or improved”. In addition, the “X-ray absorption image of the pancreas (distribution of the complex)” value in test [1] (24 h later coherent X-ray 0.153 Å, transcutaneously) is “accumulated in the Langerhans islets in the pancreas”. The “uptake of the gold complex (gold particles under electron microscope)” value in test [2] is “uptaken selectively into the macrophages having infiltrated the Langerhans islets”.

The record behind these values is patent publication US20030157026A1, “Photodynamic diagnosis and therapy for insulin-dependent diabetes mellitus” (priority 2001, published 2003).
